A word on the inhibition: it is the relative decrease from the control value, in per cent.

Amino acid sequences for entries named in this document (tags omitted).
UniProt Q92743, whole entry: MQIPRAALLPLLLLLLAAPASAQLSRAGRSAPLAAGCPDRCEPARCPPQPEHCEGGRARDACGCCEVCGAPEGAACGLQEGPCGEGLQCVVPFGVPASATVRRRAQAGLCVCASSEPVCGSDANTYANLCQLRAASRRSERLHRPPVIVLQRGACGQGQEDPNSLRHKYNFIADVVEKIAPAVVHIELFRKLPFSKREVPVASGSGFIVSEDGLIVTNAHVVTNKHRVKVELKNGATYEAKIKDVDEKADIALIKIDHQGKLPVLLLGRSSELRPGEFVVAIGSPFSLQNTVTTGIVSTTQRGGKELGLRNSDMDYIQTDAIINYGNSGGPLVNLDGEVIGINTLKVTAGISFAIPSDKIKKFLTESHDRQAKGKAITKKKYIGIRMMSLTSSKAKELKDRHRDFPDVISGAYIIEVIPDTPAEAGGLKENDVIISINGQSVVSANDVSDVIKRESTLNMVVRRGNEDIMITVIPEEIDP

The entries are a selection whose mix differs from that of the whole data set. The source made the active and inactive calls. No stated cut-off is given here; in the data, active means inhibition above about 36%; inactive means the rest.

The assay addresses Serine protease HTRA1 (Homo sapiens) (UniProt Q92743). The experiment in a line: inhibition of human HTRA1 peptidase – biochemical, fluorescence polarization, HTS, primary screen (AID 504803).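 Further: 0% = enzyme with DMSO and 100% = wells lacking enzyme.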 As to conditions: recombinant HTRA1, FP-rhodamine activity-based probe, at 5.96 µM, stronger effect = higher value. (Polarisation of emitted light reports the rotation of a fluorescent probe.)
For `CCC(=O)N(c1ccccc1)C1(COC)CCN(CCn2nnn(CC)c2=O)CC1`, the inhibition is inactive: -0.87%. With `CCC(=O)N(c1ccccc1)C1(COC)CCN(CCc2cccs2)CC1` the figure was inactive: -8.83%.

Source of the values: PubChem BioAssay AID504803 (The Scripps Research Institute Molecular Screening Center, 2011).
